This is an account of results in BindingDB's records for doi:10.1016/S1074-5521(00)00134-4 (Novartis Pharmaceuticals, 2000).

By UniProt entry, the sequences of proteins in these tests, tags left out. Where a name states a change or a piece, a line headed by the entry shows the natural chain unless it says otherwise.
UniProt P00797: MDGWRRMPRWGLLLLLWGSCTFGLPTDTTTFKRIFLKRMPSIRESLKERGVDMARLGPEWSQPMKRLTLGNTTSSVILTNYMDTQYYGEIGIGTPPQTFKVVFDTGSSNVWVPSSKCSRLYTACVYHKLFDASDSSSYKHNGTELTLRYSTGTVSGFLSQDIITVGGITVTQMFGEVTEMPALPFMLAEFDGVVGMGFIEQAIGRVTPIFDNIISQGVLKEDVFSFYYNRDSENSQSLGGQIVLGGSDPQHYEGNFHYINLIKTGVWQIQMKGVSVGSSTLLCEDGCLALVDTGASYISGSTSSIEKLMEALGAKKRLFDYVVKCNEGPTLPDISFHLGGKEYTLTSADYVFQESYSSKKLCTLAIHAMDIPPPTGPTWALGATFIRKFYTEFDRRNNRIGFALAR

Structures are written as SMILES.

For this test, the target named is Renin (Homo sapiens, UniProt P00797). As to conditions: pH 7.2; 37 °C.

As a reminder, the IC50 is the concentration needed to halve the response being measured. Read a high IC50 as lower potency. Consider `CCCCNC(=O)[C@H](C)CC(O)[C@@H](N)C[C@H](C)COC(=O)c1cn(Cc2ccccc2)c2ccccc12` (stereo partly drawn) [(2S,4S,7R)-4-amino-7-(butylcarbamoyl)-5-hydroxy-2,7-dimethylheptyl 1-benzyl-1H-indole-3-carboxylate], for which the IC50 is 3 nM.
